# Results published in PMC3687523 (Biochemical pharmacology, 2013).
# System: Male adult Wistar rats
# Conditions: 30 mg/kg s.c. codeine with i.c.v. cyclodextrin; n=12
smiles,measurement,value
COc1ccc2c3c1O[C@H]1[C@@H](O)C=C[C@H]4[C@@H](C2)N(C)CC[C@@]341 [codeine],0-120 min AUC of analgesia (mean+SEM),7748+1057 %MPE*min
